Laboratory results: the NIST ThermoML archive (doi:10.1016/j.fluid.2013.11.031)

Assay: xn = mol fraction of the nth substance listed
Conditions: Liquid, Vibrating tube method

CCCCOCCCC [dibutyl ether] + CCCO
mass density [kg/m3]
Conditions | x1 = 0.15 | x1 = 0.325 | x1 = 0.5 | x1 = 0.675 | x1 = 0.85
293.15 K, 100 kPa | 794.5 | 786.5 | 780.2 | 775.5 | 771.5
293.15 K, 10000 kPa | 802.3 | 794.3 | 788.3 | 783.6 | 779.7
293.15 K, 20000 kPa | 809.2 | 801.5 | 795.7 | 790.9 | 787.2
293.15 K, 30000 kPa | 815.7 | 808.1 | 802.4 | 797.7 | 794
293.15 K, 40000 kPa | 821.7 | 814.3 | 808.7 | 804.1 | 800.4
293.15 K, 50000 kPa | 827.4 | 820 | 814.5 | 810 | 806.4
293.15 K, 60000 kPa | 832.7 | 825.3 | 820 | 815.5 | 811.9
293.15 K, 70000 kPa | 837.8 | 830.5 | 825.2 | 820.7 | 817.2
293.15 K, 80000 kPa | 842.6 | 835.4 | 830.2 | 825.7 | 822.1
293.15 K, 90000 kPa | 847.2 | 840 | 834.8 | 830.4 | 826.9
293.15 K, 100000 kPa | 851.7 | 844.4 | 839.2 | 834.8 | 831.5
293.15 K, 110000 kPa | 855.9 | 848.7 | 843.5 | 839.2 | 835.8
293.15 K, 120000 kPa | 859.9 | 852.8 | 847.6 | 843.3 | 840
293.15 K, 130000 kPa | 863.8 | 856.7 | 851.5 | 847.3 | 844
293.15 K, 140000 kPa | 867.6 | 860.5 | 855.4 | 851.2 | 847.9
313.15 K, 100 kPa | 777.8 | 769.4 | 762.9 | 757.9 | 753.7
313.15 K, 10000 kPa | 786.5 | 778.1 | 771.9 | 767.2 | 763
313.15 K, 20000 kPa | 794.2 | 786.2 | 780.1 | 775.5 | 771.4
313.15 K, 30000 kPa | 801.4 | 793.5 | 787.5 | 783 | 779
313.15 K, 40000 kPa | 807.9 | 800.1 | 794.3 | 789.8 | 786
313.15 K, 50000 kPa | 814 | 806.3 | 800.6 | 796.1 | 792.4
313.15 K, 60000 kPa | 819.7 | 812.1 | 806.5 | 802 | 798.4
313.15 K, 70000 kPa | 825.1 | 817.6 | 812.1 | 807.6 | 804
313.15 K, 80000 kPa | 830.2 | 822.8 | 817.3 | 812.9 | 809.4
313.15 K, 90000 kPa | 835 | 827.7 | 822.3 | 817.8 | 814.4
313.15 K, 100000 kPa | 839.9 | 832.7 | 827.2 | 822.8 | 819.4
313.15 K, 110000 kPa | 844.3 | 837.2 | 831.8 | 827.6 | 824.1
313.15 K, 120000 kPa | 848.7 | 841.4 | 836.3 | 832.1 | 828.6
313.15 K, 130000 kPa | 852.8 | 845.7 | 840.4 | 836.3 | 832.8
313.15 K, 140000 kPa | 856.8 | 849.7 | 844.4 | 840.4 | 836.9
333.15 K, 100 kPa | 760.7 | 751.7 | 744.9 | 740.2 | 735.9
333.15 K, 10000 kPa | 770.5 | 761.7 | 755.3 | 750.7 | 746.6
333.15 K, 20000 kPa | 779.1 | 770.7 | 764.5 | 760 | 756
333.15 K, 30000 kPa | 786.6 | 778.5 | 772.5 | 768.1 | 764.2
333.15 K, 40000 kPa | 793.7 | 785.7 | 779.8 | 775.5 | 771.8
333.15 K, 50000 kPa | 800.3 | 792.4 | 786.7 | 782.5 | 778.8
333.15 K, 60000 kPa | 806.4 | 798.7 | 793.1 | 788.9 | 785.2
333.15 K, 70000 kPa | 812.2 | 804.6 | 799.1 | 794.9 | 791.3
333.15 K, 80000 kPa | 817.8 | 810.3 | 804.9 | 800.8 | 797.2
333.15 K, 90000 kPa | 823 | 815.6 | 810.2 | 806.1 | 802.5
333.15 K, 100000 kPa | 828.1 | 820.7 | 815.5 | 811.5 | 807.9
333.15 K, 110000 kPa | 832.8 | 825.5 | 820.3 | 816.2 | 812.7
333.15 K, 120000 kPa | 837.3 | 830.1 | 825 | 820.9 | 817.4
333.15 K, 130000 kPa | 841.5 | 834.4 | 829.3 | 825.2 | 821.7
333.15 K, 140000 kPa | 845.6 | 838.5 | 833.5 | 829.4 | 825.9
353.15 K, 100 kPa | 741.7 | 732.4 | 725.7 | 720.9 | 717.4
353.15 K, 10000 kPa | 752.6 | 743.8 | 737.6 | 732.8 | 729.4
353.15 K, 20000 kPa | 762.4 | 753.9 | 748 | 743.4 | 740
353.15 K, 30000 kPa | 771.1 | 762.9 | 757.2 | 752.8 | 749.4
353.15 K, 40000 kPa | 779 | 771.1 | 765.4 | 761.1 | 757.8
353.15 K, 50000 kPa | 786.3 | 778.5 | 773.1 | 768.7 | 765.6
353.15 K, 60000 kPa | 792.9 | 785.2 | 779.9 | 775.7 | 772.5
353.15 K, 70000 kPa | 799.3 | 791.7 | 786.5 | 782.3 | 779.1
353.15 K, 80000 kPa | 805 | 797.6 | 792.4 | 788.2 | 785.1
353.15 K, 90000 kPa | 810.5 | 803.1 | 798 | 793.9 | 790.8
353.15 K, 100000 kPa | 815.6 | 808.3 | 803.3 | 799.2 | 796.1
353.15 K, 110000 kPa | 820.7 | 813.4 | 808.4 | 804.4 | 801.4
353.15 K, 120000 kPa | 825.4 | 818.2 | 813.2 | 809.3 | 806.3
353.15 K, 130000 kPa | 829.9 | 822.8 | 817.8 | 813.9 | 810.9
353.15 K, 140000 kPa | 834.3 | 827.2 | 822.3 | 818.3 | 815.4
